# According to patent publication US8377955B2, “Branched 3- and 6-substituted quinolines as CGRP receptors antagonists” (Merck, Sharp & Dohme, Corp., priority 2008, dated 2013):
# Protein sequences, listed by entry. Tags and fused reporters are not part of them. Residues count along the entry.
# UniProt O60894, 27-148 limits assumed: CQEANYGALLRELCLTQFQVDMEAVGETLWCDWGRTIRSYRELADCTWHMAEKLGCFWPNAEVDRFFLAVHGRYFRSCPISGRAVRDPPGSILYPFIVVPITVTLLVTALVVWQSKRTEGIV
# UniProt Q16602, 23-461 limits assumed: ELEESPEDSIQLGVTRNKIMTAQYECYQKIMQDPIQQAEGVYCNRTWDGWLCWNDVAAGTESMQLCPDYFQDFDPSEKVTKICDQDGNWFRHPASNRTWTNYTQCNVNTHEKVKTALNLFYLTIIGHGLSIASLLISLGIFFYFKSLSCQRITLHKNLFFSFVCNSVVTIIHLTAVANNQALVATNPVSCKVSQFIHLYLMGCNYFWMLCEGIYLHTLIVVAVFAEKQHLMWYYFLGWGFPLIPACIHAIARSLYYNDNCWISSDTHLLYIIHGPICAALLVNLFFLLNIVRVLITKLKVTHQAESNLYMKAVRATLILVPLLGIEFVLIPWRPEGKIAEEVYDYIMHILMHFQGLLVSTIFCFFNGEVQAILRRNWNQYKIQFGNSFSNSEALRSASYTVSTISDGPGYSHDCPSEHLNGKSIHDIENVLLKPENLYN
# Target: Human CGRP receptor (Homo sapiens, UniProt O60894+Q16602)
# Test: Human CGRP receptor binding (125I-CGRP displacement)
# Details: table of Examples 3-31
# Method: NATIVE RECEPTOR BINDING ASSAY: The binding of ^125I-CGRP to receptors in SK-N-MC cell membranes was carried out essentially as described (Edvinsson et al. (2001) Eur. J. Pharmacol. 415, 39-44). Briefly, membranes (25 μg) were incubated in 1 mL of binding buffer [10 mM HEPES, pH 7.4, 5 mM MgCl2 and 0.2% bovine serum albumin (BSA)] containing 10 pM ^125I-CGRP and antagonist. After incubation at room temperature for 3 h, the assay was terminated by filtration through GFB glass fibre filter plates (PerkinElmer) that had been blocked with 0.5% polyethyleneimine for 3 h. The filters were washed three times with ice-cold assay buffer (10 mM HEPES, pH 7.4 and 5 mM MgCl2), then the plates were air dried. Scintillation fluid (50 μL) was added and the radioactivity was counted on a Topcount (Packard Instrument). Data analysis was carried out by using Prism and the Ki was determined by using the Cheng-Prusoff equation (Cheng & Prusoff (1973) Biochem. Pharmacol. 22, 3099-3108).
# RECOMBINANT RECEPTOR: Human CL receptor (Genbank accession number L76380) was subcloned into the expression vector pIREShyg2 (BD Biosciences Clontech) as a 5′NheI and 3′ PmeI fragment. Human RAMP1 (Genbank accession number AJ001014) was subcloned into the expression vector pIRESpuro2 (BD Biosciences Clontech) as a 5′NheI and 3′NotI fragment. HEK 293 cells (human embryonic kidney cells; ATCC #CRL-1573) were cultured in DMEM with 4.5 g/L glucose, 1 mM sodium pyruvate and 2 mM glutamine supplemented with 10% fetal bovine serum […], 100 units/mL penicillin and 100 μg/mL streptomycin, and maintained at 37° C. and 95% humidity. Cells were subcultured by treatment with 0.25% trypsin with 0.1% EDTA in HBSS. Stable cell line generation was accomplished by co-transfecting 10 μg of DNA with 30 μg Lipofectamine 2000 (Invitrogen) in 75 cm^2 flasks. CL receptor and RAMP1 expression constructs were co-transfected in equal amounts. Twenty-four hours after transfection the cells were diluted and selective medium (growth medium+300 μg/mL hygromycin and 1 μg/mL puromycin) was added the following day. A clonal cell line was generated by single cell deposition utilizing a FACS Vantage SE (Becton Dickinson). Growth medium was adjusted to 150 μg/mL hygromycin and 0.5 μg/mL puromycin for cell propagation.
# RECOMBINANT RECEPTOR BINDING ASSAY: Cells expressing recombinant human CL receptor/RAMP1 were washed with PBS and harvested in harvest buffer containing 50 mM HEPES, 1 mM EDTA and Complete protease inhibitors (Roche). The cell suspension was disrupted with a laboratory homogenizer and centrifuged at 48,000 g to isolate membranes. The pellets were resuspended in harvest buffer plus 250 mM sucrose and stored at −70° C. For binding assays, 20 μg of membranes were incubated in 1 ml binding buffer (10 mM HEPES, pH 7.4, 5 mM MgCl2, and 0.2% BSA) for 3 hours at room temperature containing 10 pM ^125I-hCGRP (GE Healthcare) and antagonist. The assay was terminated by filtration through 96-well GFB glass fiber filter plates (PerkinElmer) that had been blocked with 0.05% polyethyleneimine. The filters were washed 3 times with ice-cold assay buffer (10 mM HEPES, pH 7.4 and 5 mM MgCl2). Scintillation fluid was added and the plates were counted on a Topcount (Packard). Non-specific binding was determined and the data analysis was carried out with the apparent dissociation constant (Ki) determined by using a non-linear least squares fitting the bound CPM data to the equation below:
# [formula] Where Y is observed CPM bound, Ymax is total bound counts, Ymin is non specific bound counts, (Ymax−Ymin) is specific bound counts, % Imax is the maximum percent inhibition, % I min is the minimum percent inhibition, radiolabel is the probe, and the Kd is the apparent dissociation constant for the radioligand for the receptor as determined by Hot saturation experiments.
row,SMILES,Ki
1,CC(=O)OC(C)(C)C(=O)N(Cc1ccc2nc3c(cc2c1)C[C@@]1(C3)C(=O)Nc2ncccc21)[C@@H]1CCc2ccccc21,0.092 nM
2,CSCCC(=O)N(Cc1cccc(F)c1)Cc1cnc2cc3c(cc2c1)C[C@@]1(C3)C(=O)Nc2ncccc21,1.6 nM
3,C[C@H](c1cccc(Cl)c1)N(Cc1cnc2cc3c(cc2c1)C[C@@]1(C3)C(=O)Nc2ncccc21)C(=O)C1CCOCC1,0.078 nM
4,O=C(C1CCOCC1)N(Cc1cnc2cc3c(cc2c1)C[C@@]1(C3)C(=O)Nc2ncccc21)[C@@H]1CCC[C@H]1OCc1ccccc1,0.41 nM
5,CN(C)CC(=O)N(Cc1cccc(F)c1)Cc1cnc2cc3c(cc2c1)C[C@@]1(C3)C(=O)Nc2ncccc21,10 nM
6,"O=C(C1CCOCC1)N(Cc1cnc2cc3c(cc2c1)C[C@@]1(C3)C(=O)Nc2ncccc21)C1CCCC1c1ccccc1 (single isomer, unassigned) [22]",0.098 nM
7,O=C(C1CCCCO1)N(Cc1cccc(F)c1)Cc1cnc2cc3c(cc2c1)C[C@@]1(C3)C(=O)Nc2ncccc21 (stereo partly drawn),1.5 nM
8,CCOC(=O)CC(=O)N(Cc1cccc(F)c1)Cc1cnc2cc3c(cc2c1)C[C@@]1(C3)C(=O)Nc2ncccc21,1.2 nM
9,O=C(C1CCOCC1)N(Cc1cnc2cc3c(cc2c1)C[C@@]1(C3)C(=O)Nc2ncccc21)C1CNCC1c1ccccc1 (stereo partly drawn),4.8 nM
10,O=C(C1CCOCC1)N(Cc1cc(Cl)cc(Cl)c1)Cc1cnc2cc3c(cc2c1)C[C@@]1(C3)C(=O)Nc2ncccc21,4.6 nM

# The remaining compounds from weak to strong by Ki, led by results:
row,Ki,SMILES
1,54 nM,CC(C)(C)OC(=O)N1CC(c2ccccc2)C(N(Cc2cnc3cc4c(cc3c2)C[C@@]2(C4)C(=O)Nc3ncccc32)C(=O)C2CCOCC2)C1 (stereo partly drawn)
2,6 nM,CC(C)(C)C(=O)N(Cc1cnc2cc3c(cc2c1)C[C@@]1(C3)C(=O)Nc2ncccc21)C1CCOCC1
3,0.45 nM,C[C@@H](c1cc(F)cc(F)c1)N(Cc1cnc2cc3c(cc2c1)C[C@@]1(C3)C(=O)Nc2ncccc21)C(=O)[C@](C)(OCc1ccccc1)C(F)(F)F
4,0.12 nM,"O=C(C1CCOCC1)N(Cc1cnc2cc3c(cc2c1)C[C@@]1(C3)C(=O)Nc2ncccc21)C1CCCC1c1ccccc1 (single isomer, unassigned) [21]"
5,0.075 nM,CC(=O)OC(C)(C)C(=O)N(Cc1ccc2nc3c(cc2c1)CC1(C3)C(=O)Nc2ncccc21)[C@@H]1CCc2ccccc21 (stereo partly drawn)
